# Permeability data for macrocyclic peptides

Values of Townsend et al. 2020, doi:10.26434/chemrxiv.13335941.v1, as listed in CycPeptMPDB.

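Conditions beyond the assay type are not listed; see the original paper. Other peptides of the study may be missing here. Entries at the database's floor value (log10 P of -10) are not listed.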

PAMPA is the parallel artificial membrane permeability assay, which has no cells and reads passive diffusion. Permeability is in 10^-6 cm/s, converted from the database's log10 values; higher is more permeable.

- CCCN1CC(=O)N[C@@H](CC(C)C)C(=O)N[C@@H](CC(C)C)C(=O)N2CCC[C@H]2C(=O)N(Cc2ccccc2)CC(=O)N[C@@H](Cc2ccccc2)C1=O: PAMPA 3.8 × 10^-6 cm/s
- CCCN1CC(=O)N[C@@H](CC(C)C)C(=O)N(C)[C@@H](CC(C)C)C(=O)N2CCC[C@H]2C(=O)N(C)[C@@H](CC(C)C)C(=O)N[C@@H](Cc2ccccc2)C(=O)N2CCC[C@@H]2C1=O: PAMPA 9.5 × 10^-6 cm/s
- CC(C)C[C@@H]1C(=O)N[C@@H](Cc2ccccc2)CC(=O)N2CCC[C@@H]2C(=O)N[C@H](CC(C)C)C(=O)N[C@@H](Cc2ccccc2)C(=O)N2CCC[C@H]2C(=O)N[C@@H](C)C(=O)N1C: PAMPA 0.23 × 10^-6 cm/s
- CC(C)C[C@@H]1C(=O)N(Cc2ccccc2)CC(=O)N2CCC[C@@H]2C(=O)N(C)[C@H](CC(C)C)C(=O)N[C@@H](Cc2ccccc2)C(=O)N2CCC[C@H]2C(=O)N[C@@H](C)C(=O)N1C: PAMPA 0.56 × 10^-6 cm/s
- CC(C)C[C@@H]1NC(=O)[C@H](CC(C)C)N(C)C(=O)[C@@H](C)NC(=O)[C@H](Cc2ccccc2)NC(=O)[C@H](CC(C)C)N(C)C(=O)[C@H]2CCCN2C1=O: PAMPA 13 × 10^-6 cm/s
- CC(C)C[C@@H]1NC(=O)C[C@H](Cc2ccccc2)NC(=O)[C@H]2CCCN2C(=O)[C@H](Cc2ccccc2)NC(=O)CN(Cc2ccccc2)C(=O)[C@H]2CCCN2C(=O)[C@H](CC(C)C)NC1=O: PAMPA 2.6 × 10^-6 cm/s
- CC(C)C[C@@H]1NC(=O)[C@H](C)NC(=O)[C@H](Cc2ccccc2)NC(=O)[C@H](CC(C)C)N(C)C(=O)[C@@H]2CCCN2C(=O)[C@H](CC(C)C)NC1=O: PAMPA 0.71 × 10^-6 cm/s
- CCCN1CC(=O)N[C@H](CC(C)C)C(=O)N[C@@H](Cc2ccccc2)CC(=O)N2CCC[C@@H]2C(=O)N(C)[C@@H](CC(C)C)C(=O)N[C@@H](Cc2ccccc2)C(=O)N2CCC[C@H]2C1=O: PAMPA 1.8 × 10^-6 cm/s
- CCCN1CC(=O)N(C)[C@H](CC(C)C)C(=O)N[C@@H](CC(C)C)C(=O)N2CCC[C@@H]2C(=O)N(C)[C@H](CC(C)C)C(=O)N[C@@H](Cc2ccccc2)C(=O)N2CCC[C@H]2C1=O: PAMPA 6.3 × 10^-6 cm/s
- CC(C)C[C@@H]1NC(=O)[C@@H]2CCCN2C(=O)[C@@H](CC(C)C)NC(=O)[C@@H](CC(C)C)N(C)C(=O)C[C@H](Cc2ccccc2)NC(=O)[C@H]2CCCN2C(=O)[C@H](Cc2ccccc2)NC1=O: PAMPA 1.9 × 10^-6 cm/s
- CC(C)C[C@@H]1C(=O)N(C)[C@@H](CC(C)C)C(=O)N2CCC[C@@H]2C(=O)N[C@H](CC(C)C)C(=O)N[C@@H](Cc2ccccc2)C(=O)N[C@H](C)C(=O)N1C: PAMPA 8.5 × 10^-6 cm/s
- CC(C)C[C@@H]1NC(=O)C[C@H](Cc2ccccc2)NC(=O)[C@H](Cc2ccccc2)NC(=O)[C@@H](CC(C)C)N(C)C(=O)[C@H]2CCCN2C(=O)[C@H](CC(C)C)NC1=O: PAMPA 4.4 × 10^-6 cm/s
- CC(C)C[C@@H]1NC(=O)[C@@H]2CCCN2C(=O)[C@@H](CC(C)C)N(C)C(=O)[C@@H](CC(C)C)NC(=O)C[C@H](Cc2ccccc2)NC(=O)[C@@H]2CCCN2C(=O)[C@H](Cc2ccccc2)NC1=O: PAMPA 4.1 × 10^-6 cm/s
- CC(C)C[C@@H]1NC(=O)[C@@H]2CCCN2C(=O)[C@H](CC(C)C)N(C)C(=O)[C@@H](CC(C)C)NC(=O)[C@@H](C)N(C)C(=O)[C@H]2CCCN2C(=O)[C@H](Cc2ccccc2)NC1=O: PAMPA 0.56 × 10^-6 cm/s
- CC(C)C[C@@H]1NC(=O)[C@H]2CCCN2C(=O)[C@H](CC(C)C)NC(=O)[C@@H](CC(C)C)N(C)C(=O)[C@@H](C)NC(=O)[C@H](Cc2ccccc2)NC1=O: PAMPA 3.8 × 10^-6 cm/s
- CC(C)C[C@@H]1C(=O)N(C)[C@@H](CC(C)C)C(=O)N2CCC[C@@H]2C(=O)N(C)[C@H](CC(C)C)C(=O)N[C@@H](Cc2ccccc2)C(=O)N2CCC[C@H]2C(=O)N[C@@H](C)C(=O)N1C: PAMPA 2.6 × 10^-6 cm/s
- CC(C)C[C@@H]1NC(=O)[C@H](C)N(C)C(=O)[C@@H]2CCCN2C(=O)[C@H](Cc2ccccc2)NC(=O)[C@H](CC(C)C)N(C)C(=O)[C@@H]2CCCN2C(=O)[C@H](CC(C)C)NC1=O: PAMPA 1.4 × 10^-6 cm/s

A selection of 2 entries from above:

compound	PAMPA (10^-6 cm/s)
CC(C)C[C@@H]1C(=O)N(Cc2ccccc2)CC(=O)N2CCC[C@@H]2C(=O)N(C)[C@H](CC(C)C)C(=O)N[C@@H](Cc2ccccc2)C(=O)N2CCC[C@H]2C(=O)N[C@@H](C)C(=O)N1C	0.56
CC(C)C[C@@H]1NC(=O)[C@H](C)N(C)C(=O)[C@@H]2CCCN2C(=O)[C@H](Cc2ccccc2)NC(=O)[C@H](CC(C)C)N(C)C(=O)[C@@H]2CCCN2C(=O)[C@H](CC(C)C)NC1=O	1.4